## Curated experimental data: melting point values

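These are experimental values that the OPERA curators gathered from public databases to train and test their QSAR models. The files give a single number for a compound and property, which may rest on several reports. Method, purity and exact conditions of the single measurements are not given. A value may pool stereoisomers or salt forms, and the file does not say which form was measured. Some entries may be limits or estimates that an upstream database listed as plain numbers.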

Melting points are in °C.

| SMILES | mp (°C) |
|---|---|
| O=C(O)CSCCc1ccccc1 | 57 |
| Cc1ccc2c(O)c(C(=O)O)cnc2n1 | 280 |
| c1cc(OCC2CO2)c2ccc(OCC3CO3)cc2c1 (configuration not stated) | -8.15 |
| CCN(CC)C1=C[C@@H]2Oc3cc(N(CC)CC)c(C)cc3C(c3ccccc3C(=O)OC)=C2C=C1C | 205 |
| Cc1nn(-c2ccccc2)c2nc(Cl)c(C=O)cc12 | 190 |
| CC(C)(C)c1ccc(C(=O)Nc2ccccc2N)cc1 | 176 |
| CC(C)C[C@H]1OC[C@@H](C)CO1 | -21 |
| O=C(O)c1cc2c(F)cc(F)cc2[nH]1 | 253 |
| C=CC(=O)OCCCCOC(=O)Oc1ccc(C(=O)O)cc1 | 92.3 |
| O=C(O)c1cc2c(F)cccc2[nH]1 | 210 |
| Cc1ccc(C(=O)C(Cl)c2ccc(C)cc2)cc1 (configuration not stated) | 68 |
| COc1ccc(Cl)cc1C(C)=O | 34 |
| Cc1cccc2[nH]c(C(=O)O)cc12 | 217 |
| Cc1nc(C)c(-c2csc(N)n2)s1 | 126 |
| CCn1cn[nH]c1=S | 99 |
| CCn1c(O)c(N=Nc2ccc(Cl)cc2[N+](=O)[O-])c(C)c(C#N)c1=O | 225 |
| O=Cc1c(Cl)nc2ccccn12 | 125 |
| NNc1ncc(Cl)cc1Cl | 180 |
| O=C(O)c1ccc(OCC(F)(F)F)cc1 | 201 |
| COc1cc([N+](=O)[O-])ccc1N=NC(C(C)=O)C(=O)Nc1cc(Cl)ccc1OC (configuration not stated) | 301 |
| CCC(C)c1ccc(-c2csc(N)n2)cc1 (configuration not stated) | 78 |
| CCOC(=O)c1ccnc(C(=O)OCC)c1 | 29.5 |
| C[Si](NC1CCCCC1)(NC1CCCCC1)NC1CCCCC1 | -23.98 |
| CN(C1CCCCC1)S(=O)(=O)c1ccc(N)cc1 | 143 |
| C=CC(=O)OCC(CC)(COCC(CC)(COC(=O)C=C)COC(=O)C=C)COC(=O)C=C | -56 |
| Cn1c(-c2ccccc2)c(C(=O)O)c2ccccc21 | 193 |
| NC(=O)NCCCC[C@H](N)C(=O)O | 211.5 |
| O=C1C=CC(=O)N1CCc1ccccc1 | 110 |
| Clc1ccc(N2CCCC2)nn1 | 116 |
| CC(C)[C@@H]1NC(=O)O[C@@H]1CCC(F)(F)C(F)(F)C(F)(F)C(F)(F)C(F)(F)C(F)(F)F | 97.5 |
| O=C(O)CSCC(=O)N1CCCCC1 | 92 |
| O=C(C1Cc2ccccc2CN1)N1CCCC1 (configuration not stated) | 89 |
| CCCCCCOCC(O)CO (configuration not stated) | 5 |
| Nc1nnc2ccccn12 | 230 |
| CCCCOc1ccc(C2=CCC([C@H]3CC[C@H](CC)CC3)CC2)c(F)c1F (stereo partly specified) | 49.8 |
| C=CC(=O)OCCCCCCCCCC | 0 |
| O=C(CCl)NCCC(c1ccccc1)c1ccccc1 | 106 |

Excerpt, the final 4 entries:

| SMILES | mp (°C) |
|---|---|
| Nc1nnc2ccccn12 | 230 |
| CCCCOc1ccc(C2=CCC([C@H]3CC[C@H](CC)CC3)CC2)c(F)c1F (stereo partly specified) | 49.8 |
| C=CC(=O)OCCCCCCCCCC | 0 |
| O=C(CCl)NCCC(c1ccccc1)c1ccccc1 | 106 |

Values as listed in the OPERA 2.9 repository of K. Mansouri.